Test results: patent US12303500B2, “Method for improving stability of low-concentration atropine ophthalmic preparation” (SHENYANG XINGQI PHARMACEUTICAL CO., LTD., priority 2018, dated 2025)
Where a name gives a salt, the structure may show the parent alone. Read-outs that look alike come from different tables or passages of the source.

Conditions: 40°C±2°C, RH 75%±5%; for Related substances: Total impurities: HPLC

CN1[C@@H]2CC[C@H]1C[C@@H](OC(=O)C(CO)c1ccccc1)C2 (stereo partly drawn) [Example 160903-P01, atropine sulfate]
Isomers (0th month): Not detected | Properties (0th month): Colorless crystal | Related substances: Total impurities (0th month): Not detected | Isomers (1st month): Not detected | Properties (1st month): Colorless crystal | Related substances: Total impurities (1st month): Not detected | Isomers (2nd month): Not detected | Properties (2nd month): Colorless crystal | Related substances: Total impurities (2nd month): Not detected | Isomers (3rd month): Not detected | Properties (3rd month): Colorless crystal | Related substances: Total impurities (3rd month): Not detected | Isomers (6th month): Not detected | Properties (6th month): Colorless crystal | Related substances: Total impurities (6th month): Not detected
